Data taken from PubChem BioAssay (NCI).
Only a part is listed here, and it is no random draw. Some structures show a salt or complex split into parts, the way the source records it. More than one record can exist for a structure, and the calls need not agree. Active and inactive are the calls of the source. Rule as the data show it: active = growth inhibition above about 70%; inactive = the rest.

Experiment: NCI Yeast Anticancer Drug Screen. Data for the sgs1 strain (AID 173);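 also: 0% = growth of vehicle-only control cultures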
Settings: S. cerevisiae sgs1 mutant, stronger effect = higher value
Procedure: Growth inhibition of yeast strains with defined genetic alterations is measured as a screen for potential anti-cancer activity. Selected strains with alterations in DNA damage repair or cell cycle control were exposed to compounds and growth inhibition was measured relative to vehicle treated controls. The strain used in this assay is sgs1

Row | SMILES | growth inhibition (at 1.2 µM) | growth inhibition (at 3.7 µM) | growth inhibition (at 11.0 µM) | growth inhibition (at 33.0 µM) | growth inhibition (at 100.0 µM)
1 | [Au+].[Au+].c1ccc([PH+](c2ccccc2)c2ccccc2)cc1.c1ccc([PH+](c2ccccc2)c2ccccc2)cc1.n1n[n-]c(-c2nnn[n-]2)n1 | inactive: 39% | inactive: 66% | active: 98% | active: 99% | active: 99%
2 | Cc1ccc2ccc3ccc4ccccc4c3c2c1.O=C1c2cc([N+](=O)[O-])ccc2-c2c1cc([N+](=O)[O-])cc2[N+](=O)[O-] | inactive: 0% | inactive: 1% | inactive: 5% | inactive: 13% | inactive: 29%
3 | Cc1c2ccccc2cc2ccccc12.O=[N+]([O-])c1cc([N+](=O)[O-])c(O)c([N+](=O)[O-])c1 | inactive: -2% | inactive: 4% | inactive: 20% | active: 72% | active: 96%
4 | Nc1ccccc1.O=[N+]([O-])c1cc([N+](=O)[O-])cc([N+](=O)[O-])c1 | inactive: 2% | inactive: 10% | inactive: 52% | active: 99% | active: 99%
5 | Cc1cc2ccccc2cc1C.O=[N+]([O-])c1cc([N+](=O)[O-])cc([N+](=O)[O-])c1 | inactive: 1% | inactive: 1% | inactive: 7% | inactive: 26% | active: 88%
6 | COc1ccccc1N.O=[N+]([O-])c1cc([N+](=O)[O-])cc([N+](=O)[O-])c1 | inactive: 2% | inactive: 14% | inactive: 64% | active: 99% | active: 99%
7 | O=[N+]([O-])C(F)(COCC(O)CO)[N+](=O)[O-] (stereo not given) | inactive: 13% | inactive: 24% | inactive: 54% | active: 79% | active: 94%
8 | [Au].[C-]#N.[C-]#N | inactive: 16% | inactive: 31% | inactive: 31% | inactive: 35% | inactive: 38%
